This is a selection; strong and weak results do not stand in their true shares. Records with an inconclusive call do not appear. A call without a number means that no potency is given here. Activity calls are given as the source filed them. Calls follow the shape of the dose curve; as a rule, active = well fitted inhibition curve with a large enough effect in the repeat runs; inconclusive = weak or mixed curves; inactive = no such curve, though single readings can be large or run the other way.
Biological target: Cytochrome P450 1A2 (Homo sapiens) (UniProt P05177)
Test: Cytochrome P450 Family 1 Subfamily A Member 2 (CYP1A2) small molecule antagonists: luciferase reporter qHTS assay (AID 1671199); also: nearly all actives have a fitted effect of over 50% in size
Settings: P450-Glo CYP1A2 enzyme, luciferin luminescence, 1 h; series mostly up to 115 µM
From the text: National Center for Advancing Translational Sciences [NCATS]
U.S. Environmental Protection Agency [EPA]
National Institutes of Environmental Health Sciences [NIEHS]
National Toxicology Program [NTP]
U.S. Food and Drug Administration [FDA]
Cytochrome P450 (CYP) enzymes are membrane-bound hemeproteins that play a key role in metabolism of drugs and xenobiotics. Evaluation of the effect of chemicals on CYP isozymes is useful to minimize the adverse drug reactions and toxicities in drug development process. Tox21 chemicals were tested for their effect on CYP enzyme activities by using P450-Glo (TM) screening systems (Promega Corporation, Madison, WI). These systems provide a luminescent method containing proluciferin substrates and are converted to luciferin products by CYP isozymes. The luciferin products formed are detected with a luciferin detection reagent, and the amount of light produced is proportional to CYP activity. P450-Glo (TM) CYP1A2 screening system (Catalog. No. V9770) was used to detect the compounds that interfere in CYP1A2 activity.
Tox21 Assay Protocol Summary:
Two ul of enzyme-substrate mix was dispensed into medium binding white/solid 1536-well plates (Greiner Bio-One North America Inc., Monroe, NC) using a BioRaptr Flying Reagent Dispenser (FRD, Beckman Coulter, Brea, CA). Compounds dissolved in DMSO and positive control (furafyllline) were transferred to the assay plates at 23 nl using a Pintool station (Wako, San Diego, CA). The assay plates were incubated at room temperature for 10 min. Then 2 ul of NADPH regeneration solution was added to each well of the assay plates using an FRD and incubated at room temperature for 1 h. The reaction was stopped by adding 4 ul of detection reagent using an FRD and after 20 min incubation at room temperature the luminescence signal was measured using a ViewLux plate reader (Perkin Elmer, Shelton, CT). Data were expressed as relative luminescence units.
Potency is read from the fitted curve at half-maximal effect.

Chains of the proteins cited; added tags and fusions are not shown.
UniProt P05177, whole entry, looked up: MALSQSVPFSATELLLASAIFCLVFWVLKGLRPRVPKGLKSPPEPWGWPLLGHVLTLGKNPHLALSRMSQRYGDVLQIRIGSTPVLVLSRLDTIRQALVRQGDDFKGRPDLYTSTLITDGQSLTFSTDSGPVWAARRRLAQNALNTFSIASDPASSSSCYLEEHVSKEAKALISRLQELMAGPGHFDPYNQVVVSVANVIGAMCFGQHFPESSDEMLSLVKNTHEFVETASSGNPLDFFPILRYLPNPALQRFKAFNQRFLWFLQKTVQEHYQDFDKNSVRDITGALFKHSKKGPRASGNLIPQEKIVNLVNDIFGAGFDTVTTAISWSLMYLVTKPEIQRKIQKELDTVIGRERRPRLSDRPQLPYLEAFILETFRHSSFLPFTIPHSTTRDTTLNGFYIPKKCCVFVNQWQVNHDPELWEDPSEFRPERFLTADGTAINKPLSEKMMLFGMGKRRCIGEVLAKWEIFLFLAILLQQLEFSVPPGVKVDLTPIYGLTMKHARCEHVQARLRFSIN

Row | Structure (SMILES) | Potency | activity change, negative = inhibition
1 | COC(=O)Cl | inactive | 
2 | CCCCO[P+](=O)OCCCC | inactive | 
3 | CCOC(=O)Cl | inactive | 
4 | CN(C(=O)Cc1ccccc1)[C@H]1CC[C@@]2(CCCO2)C[C@@H]1N1CCCC1 | inactive | 
5 | Cc1cc([N+](=O)[O-])cc([N+](=O)[O-])c1O | active: 58 µM | 
6 | ClP(Cl)c1ccccc1 | inactive | 
7 | Cc1cc([N+](=O)[O-])c(O)c([N+](=O)[O-])c1 | inactive | 
8 | O=P(Cl)(Cl)c1ccccc1 | inactive | 
9 | CN(C(=O)Cc1ccc(Cl)c(Cl)c1)[C@H]1CC[C@@]2(CCCO2)C[C@@H]1N1CCCC1 | inactive | 
10 | O=[P+](Oc1ccccc1)Oc1ccccc1 | inactive | 
11 | O=P(Cl)(Oc1ccccc1)Oc1ccccc1 | inactive | 
12 | CCCCOP(OCCCC)OCCCC | active: 35.6 µM | 
13 | CCC(C)(OOC(C)(C)C)OOC(C)(C)C |  | inactive: -12.1% [at 23.6 µM]
14 | O=[p+]1oc2ccccc2c2ccccc21 (stereo unspecified) | inactive | 
15 | CCCCC(CC)CO[P+](=O)OCC(CC)CCCC (stereo unspecified) | inactive | 
16 | O=C(Cl)Oc1ccccc1 | inactive | 

— PubChem BioAssay (Tox21)
